For two molecules, Kd results are on record in patent US20250270584A1, “Gene editing to provide insect resistance in crops” (The Regents of the University of California, priority 2022, published 2025).

For the assay, the target named is T1, CaM7 (Arabidopsis thaliana, UniProt P59220).
T1 construct: made in house; host or cells: Escherichia coli BL21 (DE3)
The experiment in a line: ITC (isothermal titration calorimetry) assay of CBD peptides with 6His-CaM7. Conditions: KD of binding to CaM7, ITC, 25° C., mean±SD of 3 biological replicates. How it is done: ITC was carried out at 25° C. on a MicroCal iTC200 instrument (GE Healthcare). 250 μM of peptides were titrated against 20 μM of 6His-CaM7 proteins (purified by size-exclusion chromatography using Superdex 200 Increase 10/300 GL, GE Healthcare) in the reaction buffer (25 mM HEPES, 100 mM NaCl, pH 7.5) with addition of 1 mM Ca^2+ or 2 mM EGTA. Titrations were performed by an automated sequence of 20 injections spaced at 150-s intervals to ensure complete equilibration, and raw data were analyzed with Origin software (version 7.0) supplied with the instrument.

By Kd is commonly meant a measure of binding affinity in units of concentration. As for `CSCC[C@H](NC(=O)[C@H](CO)NC(=O)[C@H](CO)NC(=O)[C@H](CO)NC(=O)[C@H](CC(=O)O)NC(=O)[C@H](Cc1c[nH]cn1)NC(=O)[C@H](CC(N)=O)NC(=O)[C@H](CCC(N)=O)NC(=O)[C@H](CCC(N)=O)NC(=O)[C@H](CCC(N)=O)NC(=O)[C@@H](N)CC(=O)O)C(=O)N[C@@H](CCCNC(=N)N)C(=O)N[C@@H](CO)C(=O)N[C@H](C(=O)N[C@@H](CCCNC(=N)N)C(=O)N[C@@H](CC(C)C)C(=O)N[C@@H](CCC(N)=O)C(=O)N[C@@H](CCCNC(=N)N)C(=O)N[C@@H](Cc1ccccc1)C(=O)N[C@@H](CC(C)C)C(=O)N[C@@H](CO)C(=O)N[C@@H](CC(C)C)C(=O)O)[C@@H](C)O` [CBD peptide], the Kd (Ca2+ chelated by EGTA addition (2 mM)) stood at 279 ± 20 µM.
For the molecule `CC(C)C[C@H](NC(=O)[C@H](CO)NC(=O)[C@H](CC(C)C)NC(=O)[C@H](Cc1ccccc1)NC(=O)[C@H](CCCNC(=N)N)NC(=O)[C@H](CCC(N)=O)NC(=O)[C@H](CC(C)C)NC(=O)[C@H](CCCNC(=N)N)NC(=O)[C@@H](NC(=O)[C@H](CO)NC(=O)[C@H](CC(=O)O)NC(=O)[C@H](Cc1c[nH]cn1)NC(=O)[C@H](CC(N)=O)NC(=O)[C@H](CCC(N)=O)NC(=O)[C@H](CCC(N)=O)NC(=O)[C@H](CCC(N)=O)NC(=O)[C@@H](N)CC(=O)O)[C@@H](C)O)C(=O)O` [mutated CBD peptide], under “in the presence of Ca2+ (1 mM)”, the Kd was 71.3 ± 14.2 µM.
